This experiment concerns the target Norepinephrine transporter (Rattus norvegicus, UniProt Q9WTR4). Briefly: The compound was tested for binding affinity nisoxatine ligand. In short, it runs like this:
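Male Sprague-Dawley rat frontal cortex membranes in 50 mM Tris, 120 mM NaCl, 5 mM KCl, pH 7.4; 8 mg original wet tissue per tube. Incubation with 0.5 nM [3H]nisoxetine for 60 min at 0-4 °C. Nonspecific binding with 1 μM desipramine. Filtration and scintillation counting; Ki from at least three experiments in triplicate.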

By UniProt entry, the sequences of proteins in these tests, tags left out.
UniProt Q9WTR4, whole entry: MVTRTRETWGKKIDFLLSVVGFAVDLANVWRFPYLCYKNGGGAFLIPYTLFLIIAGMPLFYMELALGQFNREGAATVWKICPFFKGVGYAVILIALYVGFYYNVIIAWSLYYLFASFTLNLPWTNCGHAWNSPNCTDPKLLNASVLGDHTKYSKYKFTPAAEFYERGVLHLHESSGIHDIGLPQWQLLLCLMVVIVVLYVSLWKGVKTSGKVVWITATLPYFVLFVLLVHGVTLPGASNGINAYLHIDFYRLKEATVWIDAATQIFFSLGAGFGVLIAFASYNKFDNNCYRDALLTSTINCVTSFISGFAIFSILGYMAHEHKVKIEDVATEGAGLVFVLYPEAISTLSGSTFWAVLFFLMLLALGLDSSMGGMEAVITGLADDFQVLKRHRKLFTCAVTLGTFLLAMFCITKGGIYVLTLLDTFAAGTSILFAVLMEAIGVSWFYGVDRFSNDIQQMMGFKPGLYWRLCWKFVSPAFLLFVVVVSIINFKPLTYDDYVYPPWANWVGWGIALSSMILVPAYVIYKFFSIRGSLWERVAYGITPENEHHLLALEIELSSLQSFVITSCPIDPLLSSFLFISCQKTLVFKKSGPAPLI

The structures appear in SMILES notation.

What is called Ki is the dissociation constant of the complex between target and ligand, obtained from inhibition or displacement. The low end stands for tighter binding, the high end for weaker binding. As for `COC(=O)[C@H]1[C@@H](OC(=O)c2ccccc2)C[C@@H]2CC[C@H]1N2C` [COCAINE], the inhibition constant Ki worked out at 3.3 µM.

The record behind these values is ChEMBL document CHEMBL1132454 (J Med Chem, 1999).
